Values of other authors as cited in US20210393618A1, “BUPRENORPHINE TO TREAT RESPIRATORY DEPRESSION” (published 2021).

Amino acid sequences for entries named in this document (tags omitted).
UniProt P35372, whole entry: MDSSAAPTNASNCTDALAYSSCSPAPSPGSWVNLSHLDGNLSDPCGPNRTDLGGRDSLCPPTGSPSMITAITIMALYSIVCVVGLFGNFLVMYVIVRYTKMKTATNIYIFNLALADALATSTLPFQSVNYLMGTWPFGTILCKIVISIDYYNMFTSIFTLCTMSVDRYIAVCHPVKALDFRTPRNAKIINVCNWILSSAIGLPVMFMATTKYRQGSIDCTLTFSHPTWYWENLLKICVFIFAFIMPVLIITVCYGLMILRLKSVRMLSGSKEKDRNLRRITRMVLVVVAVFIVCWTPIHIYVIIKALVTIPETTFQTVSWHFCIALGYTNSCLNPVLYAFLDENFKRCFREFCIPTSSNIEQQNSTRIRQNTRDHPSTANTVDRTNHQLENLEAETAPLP

Biological target: μ-opioid receptor (Homo sapiens, UniProt P35372)

Question: With `CO[C@]12CC[C@@]3(C[C@@H]1[C@](C)(O)C(C)(C)C)[C@H]1Cc4ccc(O)c5c4[C@@]3(CCN1)[C@H]2O5` as the compound, how does the “intrinsic activity as agonist” value read?
Answer: Its value is “weak intrinsic activity”.
